This assay addresses recombinant human S1P1 receptor (Homo sapiens, UniProt P21453). Nature of the assay: GTPγS assay to determine EC50 values. The following applies: 35S-GTPγS binding, membrane preparations of CHO cells expressing recombinant human S1P1 receptor. In kind it is biochemical. The method, then: GTPγS binding assays are performed in 96 well microtiter plates (Nunc, 442587) in a final volume of 200 μl, using membrane preparations of CHO cells expressing recombinant human S1P1 receptor. Assay conditions are 20 mM Hepes (Fluka, 54461), 100 mM NaCl (Fluka, 71378), 5 mM MgCl2 (Fluka, 63064), 0.1% BSA (Calbiochem, 126609), 1 μM GDP (Sigma, G-7127), 2.5% DMSO (Fluka, 41644), 50 pM ^355-GTPγS (Amersham Biosciences, SJ1320). The pH is 7.4. Test compounds are dissolved and diluted in 100% DMSO and pre-incubated at room temperature for 30 min in 150 μl of the above assay buffer, in the absence of ^355-GTPγS. After addition of 50 μl of ^355-GTPγS, the assay is incubated for 1 h at rt. The assay is terminated by transfer of the reaction mixture to a Multiscreen plate (Millipore, MAHFC1H60) using a cell harvester from Packard Biosciences, and the plates are washed with ice-cold 10 mM Na2HPO4/NaH2PO4 (70%/30%), dried, sealed at the bottom and, after addition of 25 μl MicroScint20 (Packard Biosciences, order #6013621), sealed on the top. Membrane-bound ^35S-GTPγS is measured with a TopCount from Packard Biosciences.
EC50 is the concentration of agonist inducing 50% of the maximal specific ^35S-GTPγS binding. Specific binding is determined by subtracting non-specific binding from maximal binding. […]
(In general: GTPγS resists hydrolysis and so accumulates on activated G proteins.)

Sequences of proteins named here, by UniProt entry; tags and fusion partners are left off.
UniProt P21453, whole entry: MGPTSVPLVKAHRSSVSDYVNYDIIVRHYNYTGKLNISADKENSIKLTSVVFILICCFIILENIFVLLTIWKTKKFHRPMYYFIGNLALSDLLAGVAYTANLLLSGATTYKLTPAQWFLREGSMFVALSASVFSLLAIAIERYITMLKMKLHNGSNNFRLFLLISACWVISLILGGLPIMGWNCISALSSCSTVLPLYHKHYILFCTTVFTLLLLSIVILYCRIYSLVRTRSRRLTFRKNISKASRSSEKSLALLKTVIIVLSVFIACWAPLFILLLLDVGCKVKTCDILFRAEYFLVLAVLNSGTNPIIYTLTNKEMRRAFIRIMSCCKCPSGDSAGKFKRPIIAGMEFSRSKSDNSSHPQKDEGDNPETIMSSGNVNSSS

pEC50: −log10 of the molar value.

We go through two compounds from US8410151B2, “Aminomethyl benzene derivatives” (Actelion Pharmaceuticals Ltd, priority 2009, dated 2013).

A word on the pEC50: it is the EC50 on a negative log10 scale, so that one unit is a factor of ten. Consider `CCc1cc(-c2noc(-c3cc(C)cc(CN(C)C)c3)n2)cc(C)c1OC[C@@H](O)CNC(=O)CO` [Example 15, N—((S)-3-{4-[5-(3-dimethylaminomethyl-5-methyl-phenyl)-[1,2,4]oxadiazol-3-yl]-2-ethyl-6-methyl-phenoxy}-2-hydroxy-propyl)-2-hydroxy-acetamide], for which the pEC50 is 8.39. As for `CCc1cc(-c2noc(-c3ccc(CN(C)C)c(C)c3)n2)cc(C)c1OC[C@@H](O)CNC(=O)CO` [Example 40, N—((S)-3-{4-[5-(4-dimethylaminomethyl-3-methyl-phenyl)-[1,2,4]oxadiazol-3-yl]-2-ethyl-6-methyl-phenoxy}-2-hydroxy-propyl)-2-hydroxy-acetamide], the figure is 8.15.
